Test results taken from PMC8878114, “Lipophilicity and Pharmacokinetic Properties of New Anticancer Dipyridothiazine with 1,2,3-Triazole Substituents” (Molecules, 2022).

Tests used:
[1] = experimental lipophilicity by RP-TLC (RM0, b, logPTLC); assay type: physicochemical; settings: extrapolation to 0% acetone, acetone/TRIS buffer pH 7.4
[2] = calibration standards; cited from earlier work

- RM0 (relative lipophilicity parameter) [1]: 1.501
Compound: CC(=O)c1ccccc1 [B, acetophenone, reference compound]
- logPlit (row head of Table 6: logPTLC) [2]: 1.58 [32]
